This is an account of results in patent publication US20230218581A1, “COMPOSITIONS AND METHODS COMPRISING DENDRIMERS AND THERAPEUTIC AGENTS” (The Johns Hopkins University, priority 2020, published 2023).

One data set concerns VCAM-1. The settings on record: tested form: 2HCl; cited from earlier work.
The test system of data set [1] is synaptic proteins (PSD-95, NR2A, GluR1). Briefly: synaptic protein levels after nSMase2 inhibitor treatment. The following applies: in vivo; tested form: 2HCl.
For data set [2] the following is noted: in vivo; tested form: 2HCl; cited from earlier work.
The subject of a further data set is AT8+ granular neurons. The following applies: in vivo; tested form: 2HCl; cited from earlier work.

Consider `O=C(C=Cc1ccc(C=CC(=O)Nc2ccc(C3=NCCN3)cc2)cc1)Nc1ccc(C2=NCCN2)cc1`, for which the VCAM-1 expression entry in the data set with VCAM-1 is “lowers VCAM-1 expression”. Further, the “changes in synaptic proteins (PSD-95, NR2A, GluR1)” value in data set [1] is “significant changes in synaptic proteins”. For the same molecule, in data set [2], the “toxicity in chronic studies” value is “no overt behavioral or physiological toxicities or body mass changes”. In addition, in the data set with AT8+ granular neurons, the “suppression of number of AT8+ granular neurons in dentate gyrus” value is 75%.
